Reference: BindingDB's records for doi:10.1038/sj.bjp.0701336 (Roche Bioscience, 1997)

By UniProt entry, the sequences of proteins in these tests, tags left out.
UniProt P34969, whole entry: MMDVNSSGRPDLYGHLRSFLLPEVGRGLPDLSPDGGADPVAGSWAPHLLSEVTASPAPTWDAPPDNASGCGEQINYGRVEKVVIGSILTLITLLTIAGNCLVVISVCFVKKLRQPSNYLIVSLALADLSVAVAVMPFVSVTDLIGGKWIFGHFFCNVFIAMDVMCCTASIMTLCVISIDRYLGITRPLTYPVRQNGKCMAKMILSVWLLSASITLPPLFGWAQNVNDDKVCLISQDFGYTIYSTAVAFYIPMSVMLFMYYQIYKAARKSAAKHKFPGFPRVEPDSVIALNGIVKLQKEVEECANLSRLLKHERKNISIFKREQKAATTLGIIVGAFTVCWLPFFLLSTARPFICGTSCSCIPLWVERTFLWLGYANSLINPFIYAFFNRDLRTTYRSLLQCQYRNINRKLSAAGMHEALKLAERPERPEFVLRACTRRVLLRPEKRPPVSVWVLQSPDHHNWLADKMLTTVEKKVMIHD

Target: 5-hydroxytryptamine receptor 7 (Homo sapiens, UniProt P34969)

CCCN(CCC)C1CCc2cccc(O)c2C1 (stereo unspecified)
Ki: 141 nM
